## Antibody variant affinities, Ab-14 light chain, assay 1

The target is the same throughout: PDVDLGDISGINAS, from the HR2 region of SARS-CoV-2 spike.

Ab-14 is the parent antibody, in scFv form: VH, then three GGGGS repeats, then VL. The heavy chain is unchanged in all variants.
VH: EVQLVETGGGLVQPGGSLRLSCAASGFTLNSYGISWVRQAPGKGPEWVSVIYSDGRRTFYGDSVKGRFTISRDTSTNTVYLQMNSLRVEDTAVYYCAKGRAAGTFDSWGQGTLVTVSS
VL: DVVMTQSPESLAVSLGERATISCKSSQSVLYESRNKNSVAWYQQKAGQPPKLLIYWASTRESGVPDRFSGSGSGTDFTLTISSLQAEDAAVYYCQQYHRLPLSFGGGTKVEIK

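The parent was found by panning a naive human phage display library on the peptide. In library AAYL50, one, two or three CDR residues were substituted; doubles and triples were drawn at random. AlphaSeq pools MATa yeast showing the antibodies with MATalpha yeast showing the peptide. The frequency of each diploid, read from paired DNA barcodes, reflects how well the two displayed proteins bind. A regression on co-assayed BCL2-family reference pairs converts the normalised counts of each replicate to an apparent Kd. The assay was run in three technical replicates.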

Variants are written as CDR1, CDR2 and CDR3 of the light chain (limits as in the source). Parent: KSSQSVLYESRNKNSVA, WASTRES, QQYHRLPLS. Values are apparent Kd, the geometric mean of the replicates that gave a signal; lower means stronger binding. "no signal" means that the variant was in the library but no mating with the target was seen in any replicate; the authors take this as a sign of poor binding, and no number exists. The list is sorted by this average, lowest first, undetected variants last. In this assay the parent's reference entry averaged 4.4 nM; its copy inside this library read 48 nM. As a blank, each scFv also met three strains without target: over library AAYL50, 18% of these pairings were detected, typically at 15 µM and seldom below 970 nM. Also given: how often the same scFv was detected with the empty control strains.

| # | CDR-L1 | CDR-L2 | CDR-L3 | Kd (apparent) | seen in | control signals |
|---|---|---|---|---|---|---|
| 1 | KLSQSVLYESRNKNSIA | WASTRES | QQYHCLPLS | 1.6 nM | 3 of 3 | 3 of 9 |
| 2 | DSSQSVLYESRNKNSVA | SASTRSS | QQYHRLPLS | 1.8 nM | 3 of 3 | 1 of 9 |
| 3 | KSSQSVLYPSRNKNSVA | WASTREE | QQYHRLPLS | 2.5 nM | 3 of 3 | 2 of 9 |
| 4 | KSSQSVLYEGRNKNSVA | WAMTRED | QQYHRLPLS | 4.2 nM | 3 of 3 | 0 of 9 |
| 5 | KSSQSSLYESDNKNSVA | WASTRES | QQYHRLPLS | 4.6 nM | 3 of 3 | 7 of 9 |
| 6 | KSSQSVLYESRNKNSVA | WASTRES | QQKFRLFLS | 6.3 nM | 3 of 3 | 4 of 9 |
| 7 | KSSQSVDYEPRNKNSVA | WASTRES | QQYHRLPGS | 7.8 nM | 3 of 3 | 4 of 9 |
| 8 | KSSQSVLYESGNKNSVA | WASTRTS | QQYHQLPLS | 7.9 nM | 3 of 3 | 0 of 9 |
| 9 | KSSQSVLTESRNKNSVA | WAETRES | QQYSRLPLS | 7.9 nM | 3 of 3 | 3 of 9 |
| 10 | KSSQSVLYESRNGNSVA | WAQTRES | QQYARLPLS | 9.3 nM | 3 of 3 | 1 of 9 |
| 11 | KSSQSLLYESRNKNSVA | WASWRES | QQYHRKPLS | 9.8 nM | 3 of 3 | 0 of 9 |
| 12 | KSSISVLYESRGGNSVA | WASTRES | QQYHRLPLS | 11 nM | 3 of 3 | 1 of 9 |
| 13 | KASQSVLYESRNKNSVA | WASTRMS | QQYHALPLS | 18 nM | 3 of 3 | 3 of 9 |
| 14 | KRSCSVLDESRNKNSVA | WASTRES | QQYHRLPLS | 24 nM | 3 of 3 | 1 of 9 |
| 15 | ISPQSVLYESRNKNSVA | WASTRFS | QQYHRLPLS | 30 nM | 3 of 3 | 1 of 9 |
| 16 | KSSQSVLYDSRNKSSVA | WASTRES | QQYHRLPLS | 39 nM | 3 of 3 | 0 of 9 |
| 17 | KSSQSVLIESRNKQSVA | WASTRES | QHYHRLPLS | 41 nM | 3 of 3 | 1 of 9 |
| 18 | KSSQTVLYESRNKNSLA | WASTRES | IQYHRLPLS | 52 nM | 3 of 3 | 2 of 9 |
| 19 | KSSDMVLYSSRNKNSVA | WASTRES | QQYHRLPLS | 56 nM | 3 of 3 | 3 of 9 |
| 20 | KCSQSVLYESRNKKSVA | WASTRES | QQYHRLTLS | 71 nM | 3 of 3 | 9 of 9 |
| 21 | KQSQSVLYESRNKNSVA | WASTRES | QQYHFLPLS | 230 nM | 3 of 3 | 4 of 9 |
| 22 | KSSASVLYESRNKNSVA | WASTRES | PQYHRLFLS | 330 nM | 3 of 3 | 3 of 9 |
| 23 | KSNQSVLYESREKNSVA | WASTRES | QQYHRGPLS | 490 nM | 3 of 3 | 5 of 9 |
| 24 | KSSQPVLMESRNKNFVA | WASTRES | QQYHRLPLS | 540 nM | 3 of 3 | 2 of 9 |
| 25 | KSSQSVLYESRNKNSVL | WASTRCS | LQYHRLPLS | 1.6 µM | 1 of 3 | 3 of 9 |
| 26 | KSSNSVLYESRNKNEVA | WISTRES | QQYHRLPLS | 2.2 µM | 1 of 3 | 0 of 9 |
| 27 | YSSQCVLYESRNKNSVA | WASTRTS | QQYHRLPLS | 2.6 µM | 1 of 3 | 0 of 9 |
| 28 | KSSQCVLYESRNKNSVA | WASTRES | QRYHRLHLS | 3.6 µM | 1 of 3 | 1 of 9 |
| 29 | KSSQSRLYESRNKNSGA | WASTRES | QQYHRLSLS | 5.2 µM | 1 of 3 | 4 of 9 |
| 30 | KSSQLVLYESRNKNSVA | WASTRIS | QQYHRLPNS | 5.4 µM | 2 of 3 | 1 of 9 |
| 31 | KSSQKVLYESRNKFSVA | WASTRES | QQYHRAPLS | 6.0 µM | 3 of 3 | 2 of 9 |

Further variants, results first:

| # | Kd (apparent) | seen in | control signals | CDR-L1 | CDR-L2 | CDR-L3 |
|---|---|---|---|---|---|---|
| 32 | 7.4 µM | 1 of 3 | 0 of 9 | KSSQSVLYEARNKNSVI | WAETRES | QQYHRLPLS |
| 33 | 13 µM | 2 of 3 | 3 of 9 | KSSQSVLYESRNKNSVR | WKSTRES | QQPHRLPLS |
| 34 | 24 µM | 3 of 3 | 3 of 9 | KSSQSVLYEVRNKNSVA | WASTRKS | QQYHRLPLS |
| 35 | 25 µM | 2 of 3 | 5 of 9 | KSHQEVLYESRNKNSVA | WVSTRES | QQYHRLPLS |
| 36 | 36 µM | 1 of 3 | 4 of 9 | KSSQSVLYESCNKNSVH | WASTRES | QQYFRLPLS |
| 37 | 36 µM | 1 of 3 | 1 of 9 | KSSQSVLYESRNKNSVA | WASTNES | QWYHRMPLS |
| 38 | 39 µM | 1 of 3 | 3 of 9 | KSSQSVLKESHNKNSVA | WASTRES | QQWHRLPLS |
| 39 | 130 µM | 1 of 3 | 0 of 9 | KSSQSVLYESRNKNSPA | WAGTRES | QQYHRHPLS |
| 40 | 730 µM | 2 of 3 | 3 of 9 | LSSQWVLYESRNKNRVA | WASTRES | QQYHRLPLS |
| 41 | no signal | 0 of 3 | 0 of 9 | KSSQSQLYESSNKNSVF | WASTRES | QQYHRLPLS |
| 42 | no signal | 0 of 3 | 1 of 9 | KSSQSVLYESRRKNSVA | WASTRES | QQYHRVPLS |
| 43 | no signal | 0 of 3 | 0 of 9 | KSSQSVLYESRNHNSVA | WASTRES | QQVHRLPLR |
| 44 | no signal | 0 of 3 | 0 of 9 | KSQQSVLYESRNWNSVA | WASTRES | QQNHRLPLS |
| 45 | no signal | 0 of 3 | 2 of 9 | KSSQSVLYESRNKNSVF | WASGRES | QQLHRLPLS |
| 46 | no signal | 0 of 3 | 0 of 9 | KSCQSVLYESRNKNSVA | QASTRES | QQYHRLLLS |
| 47 | no signal | 0 of 3 | 2 of 9 | KSSQSWLYESRNKNSVA | WASLRES | QQCHRLPLS |
| 48 | no signal | 0 of 3 | 0 of 9 | KSSQKVLYESRNKNSVA | RASTRES | QQDHRLPLS |
| 49 | no signal | 0 of 3 | 0 of 9 | KSSQSVLCESRNKNWVA | WASTRES | QQYHRLPLS |
| 50 | no signal | 0 of 3 | 0 of 9 | QSSQSVLYESRNKNSVA | WASTRES | CWYHRLPLS |
| 51 | no signal | 0 of 3 | 0 of 9 | KSSQSVLYESRNKNSVA | WASYREH | QQYHRTPLS |
| 52 | no signal | 0 of 3 | 0 of 9 | KSSASVLYESRNKNCVA | WASTRES | QQYHRLPTS |
| 53 | no signal | 0 of 3 | 1 of 9 | KSSQSVLYESVFKNSAA | WASTRES | QQYHRLPLS |
| 54 | no signal | 0 of 3 | 1 of 9 | KESQSVLYESRNKNSVA | PASLRES | QQYHRLPLS |
| 55 | no signal | 0 of 3 | 0 of 9 | KSSQSVLYESCNKNSVM | WASTTES | QQYHRLPLS |
| 56 | no signal | 0 of 3 | 0 of 9 | KSSQSDLYESRNKNSVA | WASTLES | QQYPRLPLS |
| 57 | no signal | 0 of 3 | 0 of 9 | KSSQSVLYMSRNKNHVA | WATTRES | QQYHRLPLS |
| 58 | no signal | 0 of 3 | 0 of 9 | KSSQSVLYESCNKNSVA | WNSTRES | QQYHRLLLS |
| 59 | no signal | 0 of 3 | 0 of 9 | KSSQSVYYESRNKNKVA | WASTRES | NQYHRLPLS |
| 60 | no signal | 0 of 3 | 0 of 9 | KSSQSVLYESRNKSSVA | WNSTRES | QQYHRLPYS |
| 61 | no signal | 0 of 3 | 0 of 9 | KSSQSVLYESRNCNSVD | WASTRES | QQYHHLPLS |
| 62 | no signal | 0 of 3 | 1 of 9 | KSSQSVLYESRNKPSVA | WASTRES | QQCHRLPLS |

Again, the first 10 entries without any signal:

CDR-L1	CDR-L2	CDR-L3	Kd (apparent)	seen in	control signals
KSSQSQLYESSNKNSVF	WASTRES	QQYHRLPLS	no signal	0 of 3	0 of 9
KSSQSVLYESRRKNSVA	WASTRES	QQYHRVPLS	no signal	0 of 3	1 of 9
KSSQSVLYESRNHNSVA	WASTRES	QQVHRLPLR	no signal	0 of 3	0 of 9
KSQQSVLYESRNWNSVA	WASTRES	QQNHRLPLS	no signal	0 of 3	0 of 9
KSSQSVLYESRNKNSVF	WASGRES	QQLHRLPLS	no signal	0 of 3	2 of 9
KSCQSVLYESRNKNSVA	QASTRES	QQYHRLLLS	no signal	0 of 3	0 of 9
KSSQSWLYESRNKNSVA	WASLRES	QQCHRLPLS	no signal	0 of 3	2 of 9
KSSQKVLYESRNKNSVA	RASTRES	QQDHRLPLS	no signal	0 of 3	0 of 9
KSSQSVLCESRNKNWVA	WASTRES	QQYHRLPLS	no signal	0 of 3	0 of 9
QSSQSVLYESRNKNSVA	WASTRES	CWYHRLPLS	no signal	0 of 3	0 of 9

Values reported by Engelhart et al. 2022, doi:10.1038/s41597-022-01779-4 (FLAb copy).